Compound activity deposited in PubChem BioAssay by Broad Institute.
ARNT-TACC3 inh: ARNT/TACC3 interaction disruption. AlphaScreen His-ARNT PAS-B/GST-TACC3 binding, luminescence; TACC3 fragment carries E629A point mutation. 0.66% of 390,000 active. AID 623870. inhibition, % at 9.99 µM;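 active means mean inhibition of replicates at least 50% and at least half of replicates each reaching 50%; inconclusive means half or more replicates reach 50% but mean below 50%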;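 further: 0% = complete ARNT plus TACC3 wells and 100% = ARNT alone without TACC3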
E-selectin induc: induces E-selectin expression in human endothelial cells | 0.37% of 260,000 active | activation, % at 7.58 µM | HUVEC E-selectin immunofluorescence imaging; normalized: neutral wells 0, TNF-alpha wells 100 | P16581;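 active means mean E-selectin-positive cell signal at least 10% of the positive control, reached in at least 60% of replicates, without over 20% cell loss; inconclusive means no rule given, readout overlaps actives, possibly toxicity-flagged; inactive means the rest, including those meeting only one limit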
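Read-out basis: % PE-positive cells; Test system: HUVEC primary endothelial cells; Technique: immunofluorescence imaging; Dosing: single-point compound dose.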
S100A4 MyoIIA: blocks human S100A4 binding to myosin IIA peptide; S100A4/TAMRA-MyoIIA peptide fluorescence polarization; 0.14% of 360,000 active; inhibition, % at 10.7 µM; P26447; AID 652163;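 active means mean inhibition of at least 70% across replicates, with every replicate also reaching that level; inconclusive means mean inhibition reaches 70% but some replicates fall short; inactive means mean inhibition below 70%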
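Material: S100A4 monomer protein / Buffer or medium: 50 mM HEPES pH 7.2, 10 mM CaCl2, 100 mM KCl / Times: 5 min incubation before reading / Benchmarks: neutral control DMSO, positive control TFP / Reagent: labelled myosin peptide probe, 5 nM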
MLL AF4-AF9 inh: blocks AF4 peptide binding to human AF9; P42568; AlphaScreen, biotin-AF4 peptide binding to FLAG-AF9; inhibition, % at 10 µM; 0.47% of 350,000 active; AID 651704;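 active means every replicate reaching a set inhibition limit, whatever the replicate mean, cut at about 25% in these data; inconclusive means mean inhibition reaches that limit but some replicates miss it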;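 further: 0% = plate neutral control median and 100% = total signal loss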
UUG fidelity: alters start codon recognition fidelity in yeast. S. cerevisiae UUG-firefly luciferase reporter, luminescence/redox ratio. AID 602363. activity score, % at 18.7 µM. hit rate 0.13% among 350,000;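 active = replicate mean at a twofold rise or more, about +100% in these data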;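 note: firefly luciferase made from a UUG start codon reports start codon fidelity; reporter light over untreated wells divided by growth signal over untreated wells; some hits fall short of that in this replicate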
ERAP1 inh: ERAP1 (human) enzyme inhibition. Q9NZ08. recombinant ERAP1, Leu-AMC fluorescence, 60 min. inhibition, % at 10.7 µM. 0.15% of 340,000 active. AID 652197;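 active means mean replicate inhibition of at least 30%, or all replicates individually reaching that 30% level; inactive means mean below 30% and not every replicate reaching it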;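 further: 0% = neutral control wells and 100% = L-leucinethiol positive control wells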
* = called active by the depositor; ? = inconclusive; / = no result. An excerpt weighted towards active compounds, which were near 1.3% of everything screened.

Short keys: A = ARNT-TACC3 inh; B = E-selectin induc; C = S100A4 MyoIIA; D = MLL AF4-AF9 inh; E = UUG fidelity; F = ERAP1 inh
(1) C#CCOCCOCCOCCNc1nc(N2CCN(C(=O)[C@H](CO)n3cc([C@@H](N)C(C)C)nn3)CC2)nc(N2CCN(C(=O)[C@H](CCCCN)n3cc([C@@H](N)[C@H](C)CC)nn3)CC2)n1
  A: 15; B: 0; C: 0; D: 42*; E: 21; F: -5

(2) Cc1ccccc1C[n+]1cccc2ccccc21
  A: -1; B: 0; C: -3; D: 50*; E: -5; F: -6

(3) CCCCCCCCCCCCCCCC[n+]1cccc2ccccc21
  A: 19; B: /; C: -10; D: 26*; E: /; F: 108*

(4) CCC(=O)N1[C@H](CO)[C@H](c2ccccc2-c2cccc(C)c2)[C@@H]1C#N
  A: /; B: 0; C: -8; D: -2; E: /; F: 3

(5) C[C@H]1CN([C@@H](C)CO)C(=O)c2cccc(NC(=O)CCCCCC(=O)Nc3ccccc3N)c2O[C@H]1CN(C)Cc1ccc(C(F)(F)F)cc1
  A: /; B: 0; C: 7; D: -2; E: /; F: -1

(6) Oc1cc(Nc2cccnc2)cc2cccnc12
  A: 58*; B: 0; C: 2; D: 39*; E: -28; F: -1

(7) Oc1cc(NCCc2cccnc2)cc2cccnc12
  A: 73*; B: 0; C: 11; D: ?; E: -27; F: 7

(8) CN(C)c1ccc(-c2cc(O)c3ncccc3c2)cc1
  A: 36; B: 0; C: -3; D: 15; E: -16; F: -1

(9) Cc1noc(C)c1S(=O)(=O)Nc1ccc2c(c1)C(=O)N([C@H](C)CO)C[C@@H](C)[C@@H](CN(C)C(=O)CCCN(C)C)OCCCC[C@H](C)O2
  A: -8; B: 0; C: /; D: /; E: 7; F: /

(10) CCOC(=O)[C@H]1[C@H]2COc3ccc(Cl)cc3[C@@H]2N2C(=O)c3ccc(Cl)cc3NC(=O)[C@@]12C
  A: 15*; B: 0; C: 1; D: 5; E: -8; F: -6

(11) CCOC(=O)[C@H]1[C@H]2COc3ccc(C)cc3[C@@H]2N2C(=O)c3ccc(Cl)cc3NC(=O)[C@@]12C
  A: -2; B: 0; C: 5; D: 3; E: -7; F: -2

(12) COc1cccc(S(=O)(=O)N(C)C[C@H]2Oc3ncc(Br)cc3C(=O)N([C@H](C)CO)C[C@H]2C)c1
  A: -1; B: 3; C: -1; D: -5; E: -14; F: -2

(13) COc1ccc(S(=O)(=O)N(C)C[C@H]2Oc3ncc(C#CC4(O)CCCC4)cc3C(=O)N([C@@H](C)CO)C[C@H]2C)cc1
  A: -2; B: 0; C: -5; D: -3; E: /; F: 1

(14) COc1cccc(S(=O)(=O)N(C)C[C@@H]2Oc3ncccc3C(=O)N([C@H](C)CO)C[C@@H]2C)c1
  A: 2; B: 0; C: 10; D: -10; E: -5; F: 46*

(15) COc1ccc(S(=O)(=O)N(C)C[C@H]2Oc3ncc(C#CC4(O)CCCC4)cc3C(=O)N([C@H](C)CO)C[C@@H]2C)cc1
  A: 39*; B: 0; C: 0; D: -2; E: /; F: -4

(16) COc1ccc(S(=O)(=O)N(C)C[C@@H]2Oc3ncccc3C(=O)N([C@H](C)CO)C[C@@H]2C)cc1
  A: -3; B: 0; C: -5; D: -5; E: -10; F: 42*

(17) C[C@H](CO)N1C[C@H](C)[C@H](CN(C)S(=O)(=O)c2ccccc2)Oc2ncccc2C1=O
  A: -2; B: 1; C: 4; D: -6; E: 0; F: 2

(18) CO[C@@H]1CN(C)C(=O)c2cc(NC(=O)C3CCCC3)ccc2OC[C@H](C)N(C(C)=O)C[C@@H]1C
  A: -3; B: 0; C: /; D: /; E: /; F: /

(19) CC(=O)Nc1ccc2c(c1)C(=O)N(C)[C@H]1CC[C@H](CC(=O)NCc3ccc4c(c3)OCO4)O[C@H]1CO2
  A: 0; B: 0; C: /; D: /; E: -1; F: /

(20) O=C(NC1CCCC1)[C@H]1[C@H](CO)[C@H]2Cn3c(ccc(C4=CCCC4)c3=O)[C@@H]1N2C(=O)c1ccccc1
  A: 8; B: 0; C: 19; D: 1; E: /; F: -5

(21) Cc1cc(C)n(/C(=C\N(C)C)C(=O)c2cccc([N+](=O)[O-])c2)n1
  A: -3; B: 0; C: 4; D: 51*; E: -6; F: -3

(22) C[C@@H]1CN([C@@H](C)CO)C(=O)Cc2cc(NC(=O)Nc3ccc(F)cc3)ccc2O[C@@H]1CN(C)C(=O)Nc1ccc2c(c1)OCO2
  A: -10; B: 0; C: 1; D: 4; E: -4; F: 0

(23) CCCCCCCCCCCCCCCC[n+]1cccc(C(=O)N(CC)CC)c1
  A: 12; B: 2; C: -3; D: 4; E: 25; F: 68*

(24) CCCCCCCC[n+]1cccc(C(=O)N(CC)CC)c1
  A: /; B: /; C: -7; D: -2; E: /; F: -2

(25) CCOc1ccc(C(=O)N2CCN(S(=O)(=O)c3cccs3)CC2)c(OCC)c1
  A: -2; B: 33*; C: 4; D: 0; E: -9; F: -1

Reprinted at random: 2 records from the list
Short keys: A = ARNT-TACC3 inh; B = E-selectin induc; C = S100A4 MyoIIA; D = MLL AF4-AF9 inh; E = UUG fidelity; F = ERAP1 inh
(13) COc1ccc(S(=O)(=O)N(C)C[C@H]2Oc3ncc(C#CC4(O)CCCC4)cc3C(=O)N([C@@H](C)CO)C[C@H]2C)cc1
  A: -2; B: 0; C: -5; D: -3; E: /; F: 1

(21) Cc1cc(C)n(/C(=C\N(C)C)C(=O)c2cccc([N+](=O)[O-])c2)n1
  A: -3; B: 0; C: 4; D: 51*; E: -6; F: -3

New compounds follow.
Short keys: A = ARNT-TACC3 inh; B = E-selectin induc; C = S100A4 MyoIIA; D = MLL AF4-AF9 inh; E = UUG fidelity; F = ERAP1 inh
(26) CCC(=O)Nc1nnc(SCc2ccc(F)cc2)s1
  A: -5; B: /; C: /; D: /; E: -9; F: /

(27) CCOC(=O)C(=O)Nc1nnc(SCc2ccc(F)cc2)s1
  A: -3; B: 39*; C: -4; D: -6; E: -6; F: 12

(28) CCOC(=O)c1sc(NC(=O)CNCc2ccccn2)c(C(=O)OCC)c1C
  A: 48*; B: /; C: 6; D: /; E: /; F: 2

(29) C[C@@H]1CN([C@H](C)CO)S(=O)(=O)c2ccc(-c3ccccc3)cc2O[C@H]1CN(C)Cc1cccc(F)c1
  A: -6; B: /; C: -4; D: 1; E: 7; F: -4

(30) N=c1c(C(=O)NCCN2CCOCC2)cc2c(=O)n3ccccc3nc2n1CCCN1CCOCC1
  A: 2; B: /; C: 3; D: 0; E: -22; F: 37*

(31) N=c1c(C(=O)NC2CCCCC2)cc2c(=O)n3ccccc3nc2n1CC1CCCO1 (stereo not drawn)
  A: -2; B: /; C: -3; D: 1; E: -14; F: 103*

(32) O=C(COC(=O)c1ccc([N+](=O)[O-])o1)NC1CCS(=O)(=O)C1 (stereo not drawn)
  A: 31*; B: /; C: -1; D: -2; E: /; F: -2

(33) CC1CCCCC1NC(=O)COC(=O)c1ccc([N+](=O)[O-])o1 (stereo not drawn)
  A: 18; B: 1; C: -4; D: 1; E: -9; F: 0

(34) O=C(COC(=O)c1ccc([N+](=O)[O-])o1)NC1CCCC1
  A: 48*; B: 0; C: 0; D: -4; E: 1; F: -2

(35) O=C(COC(=O)c1ccc([N+](=O)[O-])o1)NC1CCCCC1
  A: 30; B: /; C: -3; D: -1; E: 12; F: 1

(36) CN(C)C(=O)[C@H]1[C@H](CO)[C@H]2Cn3c(ccc(C4=CCCCC4)c3=O)[C@@H]1N2Cc1ccncc1
  A: 0; B: 0; C: 2; D: 0; E: /; F: -1

(37) CCc1ccc(/C=C2\SC(=S)N(CCCC(=O)N3CCN(C)CC3)C2=O)cc1
  A: /; B: 0; C: -6; D: 33*; E: -67; F: 8

(38) CN1CCN(C(=O)CCCN2C(=O)/C(=C/c3cccc(Br)c3)SC2=S)CC1
  A: 13; B: /; C: -3; D: 27*; E: -29; F: 12

(39) CN1CCN(C(=O)CCN2C(=O)/C(=C/c3cccc(Br)c3)SC2=S)CC1
  A: /; B: /; C: -17; D: 4; E: -20; F: 3

(40) O=C(C[C@@H]1C[C@@H]2c3cc(NC(=O)Nc4ccc(F)cc4)ccc3O[C@@H]2[C@@H](CO)O1)NC1CCCC1
  A: -8; B: 0; C: 2; D: 3; E: -8; F: 1

(41) COc1ccccc1C#Cc1ccc2c(c1)[C@@H]1[C@@H](CCN1C(=O)CN1CCOCC1)[C@H](CO)N2
  A: /; B: 0; C: -6; D: 13; E: /; F: 4

(42) Cc1c(N/N=C(\C#N)C(=O)c2ccc(Cl)cc2)c(=O)n(-c2ccccc2)n1C
  A: 60*; B: 0; C: /; D: /; E: /; F: /

Among those listed so far, these contain an aryl thioether with sulfur outside any ring:
Short keys: A = ARNT-TACC3 inh; B = E-selectin induc; C = S100A4 MyoIIA; D = MLL AF4-AF9 inh; E = UUG fidelity; F = ERAP1 inh
(26) CCC(=O)Nc1nnc(SCc2ccc(F)cc2)s1
  A: -5; B: /; C: /; D: /; E: -9; F: /

(27) CCOC(=O)C(=O)Nc1nnc(SCc2ccc(F)cc2)s1
  A: -3; B: 39*; C: -4; D: -6; E: -6; F: 12
